From ChEMBL document CHEMBL1129681, “Synthesis, absolute configuration, and biological profile of the enantiomers of trans-[2-(2,6-dimethoxyphenoxy)ethyl] [(3-p-tolyl-2,3-dihydro-1,4-benzodioxin-2-yl)methyl]amine (mephendioxan), a potent competitive alpha 1A-adrenoreceptor antagonist” (J Med Chem, 1996)

By UniProt entry, the sequences of proteins in these tests, tags left out.
UniProt P15823, whole entry: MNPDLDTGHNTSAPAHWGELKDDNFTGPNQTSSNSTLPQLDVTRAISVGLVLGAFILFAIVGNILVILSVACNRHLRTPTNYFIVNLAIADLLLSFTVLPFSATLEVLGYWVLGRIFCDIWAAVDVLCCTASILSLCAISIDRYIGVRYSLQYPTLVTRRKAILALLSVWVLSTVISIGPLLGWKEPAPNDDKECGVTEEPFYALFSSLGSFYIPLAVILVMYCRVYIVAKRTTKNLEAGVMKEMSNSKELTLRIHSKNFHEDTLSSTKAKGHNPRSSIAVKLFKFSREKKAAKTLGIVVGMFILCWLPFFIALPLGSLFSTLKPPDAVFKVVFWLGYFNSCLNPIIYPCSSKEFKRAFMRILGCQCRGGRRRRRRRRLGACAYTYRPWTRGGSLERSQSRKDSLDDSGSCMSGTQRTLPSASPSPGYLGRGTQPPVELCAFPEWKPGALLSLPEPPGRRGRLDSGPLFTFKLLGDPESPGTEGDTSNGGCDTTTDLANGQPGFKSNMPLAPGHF
UniProt P19327, whole entry: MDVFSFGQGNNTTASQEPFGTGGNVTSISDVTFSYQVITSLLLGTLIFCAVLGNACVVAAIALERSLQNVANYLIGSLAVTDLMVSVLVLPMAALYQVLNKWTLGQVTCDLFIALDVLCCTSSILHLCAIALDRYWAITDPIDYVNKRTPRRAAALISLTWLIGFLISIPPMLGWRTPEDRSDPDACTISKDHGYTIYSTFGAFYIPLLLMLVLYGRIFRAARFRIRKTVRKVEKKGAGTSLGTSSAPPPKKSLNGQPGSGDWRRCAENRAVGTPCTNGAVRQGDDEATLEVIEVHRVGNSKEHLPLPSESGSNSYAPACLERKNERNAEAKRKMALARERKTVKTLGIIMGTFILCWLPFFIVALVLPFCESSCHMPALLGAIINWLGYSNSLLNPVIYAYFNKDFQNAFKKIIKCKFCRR
UniProt P23944, whole entry: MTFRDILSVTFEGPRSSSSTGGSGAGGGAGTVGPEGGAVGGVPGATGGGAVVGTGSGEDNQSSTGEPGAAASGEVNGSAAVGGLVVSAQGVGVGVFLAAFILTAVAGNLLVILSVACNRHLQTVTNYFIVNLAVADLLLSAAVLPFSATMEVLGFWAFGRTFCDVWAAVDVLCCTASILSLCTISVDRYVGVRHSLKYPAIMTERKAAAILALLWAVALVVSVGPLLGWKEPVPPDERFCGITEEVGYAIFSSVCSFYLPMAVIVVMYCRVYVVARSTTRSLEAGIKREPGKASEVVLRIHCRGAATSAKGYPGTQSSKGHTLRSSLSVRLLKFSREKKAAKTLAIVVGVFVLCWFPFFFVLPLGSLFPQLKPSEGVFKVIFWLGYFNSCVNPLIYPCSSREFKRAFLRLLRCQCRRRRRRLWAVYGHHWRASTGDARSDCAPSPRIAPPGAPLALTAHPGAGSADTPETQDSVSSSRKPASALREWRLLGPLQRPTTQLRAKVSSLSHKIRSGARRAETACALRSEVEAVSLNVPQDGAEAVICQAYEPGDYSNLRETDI

Legend:
[1] = biological target: Alpha-1B adrenergic receptor (Rattus norvegicus, UniProt P15823); test: Binding affinity towards Alpha-1B adrenergic receptor in rat liver using [3H]prazosin as radioligand
[2] = biological target: 5-hydroxytryptamine receptor 1A (Rattus norvegicus, UniProt P19327); test: Binding affinity towards 5-hydroxytryptamine 1A receptor in rat hypocampus membrane using [3H]8-OH-DPAT as radioligand; format: cell membranes
Outline: (§1)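 Rat brain membranes (native receptors): cerebral cortex for α1 with [3H]prazosin (79.2 Ci/mmol) and α2 with [3H]rauwolscine (80.5 Ci/mmol); hippocampus for 5-HT1A with [3H]8-OH-DPAT (162.9 Ci/mmol); striatum for D2 with [3H]spiperone (17.7 Ci/mmol). Radioligand competition by test drug; mean ± SE of at least three separate experiments in triplicate.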

[3] = biological target: T1, Alpha-1A adrenergic receptor (Rattus norvegicus, UniProt P43140); test: Binding affinity towards Alpha-1A adrenergic receptor in rat hippocampal membranes using [3H]prazosin as radioligand; format: cell membranes, Hippocampus
T1 sequence (P43140 whole entry): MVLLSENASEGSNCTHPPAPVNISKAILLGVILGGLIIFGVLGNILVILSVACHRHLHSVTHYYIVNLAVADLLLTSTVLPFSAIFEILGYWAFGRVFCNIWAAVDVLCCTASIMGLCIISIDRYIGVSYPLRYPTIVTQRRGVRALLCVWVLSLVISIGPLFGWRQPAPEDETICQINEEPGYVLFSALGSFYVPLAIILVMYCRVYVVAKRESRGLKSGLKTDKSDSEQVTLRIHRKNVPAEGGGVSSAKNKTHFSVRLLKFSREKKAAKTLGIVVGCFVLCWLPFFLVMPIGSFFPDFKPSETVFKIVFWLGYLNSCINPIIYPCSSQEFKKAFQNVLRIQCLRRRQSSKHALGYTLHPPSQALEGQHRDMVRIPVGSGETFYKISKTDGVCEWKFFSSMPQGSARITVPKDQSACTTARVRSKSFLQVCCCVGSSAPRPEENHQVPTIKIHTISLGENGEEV
Outline: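 Native α1A site from rat hippocampus membranes pretreated with CEC, labelled with [3H]prazosin in competition binding. Mean ± SE of at least three separate experiments, each run in triplicate.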

[4] = biological target: Alpha-1D adrenergic receptor (Rattus norvegicus, UniProt P23944); test: Binding affinity towards Alpha-1D adrenergic receptor in rat brain using [3H]prazosin as radioligand; format: tissue-based
[5] = biological target: Adrenergic receptor alpha-1 (Rattus norvegicus, UniProt P15823+P23944+P43140); test: Binding affinity towards Alpha-1 adrenergic receptor in rat cerebral cortex using [3H]prazosin as radioligand; format: tissue-based; outline: as §1

COC(=O)C1=C(C)NC(C)=C(C(=O)OCCCN2CCC(c3ccccc3)(c3ccccc3)CC2)[C@H]1c1cccc([N+](=O)[O-])c1 [NIGULDIPINE]
Ki [1]: 380 nM | Ki [2]: > 10 µM | Ki [3]: 6.38 nM | Ki [4]: 82.4 nM | Ki [5]: 27.8 nM
